Measurements reported in US8147805B2, “Conjugates for dual imaging and radiochemotherapy: composition, manufacturing, and applications” (priority 2005, dated 2012).

Test system: mammary tumor cells from the 13762 tumor cell line
Conditions: single dose of 100 mg DZ equivalent/rat, i.v.; breast tumor-bearing rat; FIG. 7

In the case of “Ethylenedicysteine-Oligosaccharide-Diatrizoate [EC-OS-DZ]”, the “uptake on x-ray compared to contrast media (DZ)” value is reported as “sustained uptake”.
